Reference: patent US7012089B2, “[1,4]Diazocino[7,8,1-hi]indole derivatives as antipsychotic and antiobesity agents” (Wyeth, priority 2002, dated 2006)

The chains behind the UniProt entries cited, without tags or fusion partners. Residues count along the entry.
UniProt P28335, 33-458: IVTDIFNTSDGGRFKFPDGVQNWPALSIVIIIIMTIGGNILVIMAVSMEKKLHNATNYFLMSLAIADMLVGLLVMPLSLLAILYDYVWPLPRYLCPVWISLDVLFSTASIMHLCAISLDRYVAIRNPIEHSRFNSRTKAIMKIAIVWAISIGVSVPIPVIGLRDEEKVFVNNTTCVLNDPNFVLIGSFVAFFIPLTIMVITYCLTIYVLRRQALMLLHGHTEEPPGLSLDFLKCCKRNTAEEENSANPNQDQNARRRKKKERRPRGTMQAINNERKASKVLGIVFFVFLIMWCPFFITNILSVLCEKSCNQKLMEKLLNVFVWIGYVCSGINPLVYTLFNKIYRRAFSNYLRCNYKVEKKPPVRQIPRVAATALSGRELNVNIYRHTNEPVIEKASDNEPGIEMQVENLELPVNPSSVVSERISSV

Tests used:
[1] = biological target: human 5-hydroxytryptamine-2C (h-5-HT2C) receptor (Homo sapiens, UniProt P28335); experiment: [125I]DOI binding to membranes of CHO cells expressing the h-5-HT2C receptor; conditions: reference compounds; displacement of [125I]DOI, CHO cell membranes; read-out: Ki (95% confidence interval)
human 5-HT2C receptor = human 5-HT2C receptor (Homo sapiens, UniProt P28335); experiment: 5-HT2C receptor-stimulated calcium mobilization (FLIPR) in CHO cells; conditions: reference compounds

1-(2,5-dimethoxy-4-iodophenyl)isopropylamine [DOI, reference compound]
Ki [1]: 6.2 nM
EC50 (human 5-HT2C receptor): 0.5 nM
